The structures appear in SMILES notation.

The chains behind the UniProt entries cited, without tags or fusion partners. Where a name states a change or a piece, a line headed by the entry shows the natural chain unless it says otherwise.
UniProt P31749: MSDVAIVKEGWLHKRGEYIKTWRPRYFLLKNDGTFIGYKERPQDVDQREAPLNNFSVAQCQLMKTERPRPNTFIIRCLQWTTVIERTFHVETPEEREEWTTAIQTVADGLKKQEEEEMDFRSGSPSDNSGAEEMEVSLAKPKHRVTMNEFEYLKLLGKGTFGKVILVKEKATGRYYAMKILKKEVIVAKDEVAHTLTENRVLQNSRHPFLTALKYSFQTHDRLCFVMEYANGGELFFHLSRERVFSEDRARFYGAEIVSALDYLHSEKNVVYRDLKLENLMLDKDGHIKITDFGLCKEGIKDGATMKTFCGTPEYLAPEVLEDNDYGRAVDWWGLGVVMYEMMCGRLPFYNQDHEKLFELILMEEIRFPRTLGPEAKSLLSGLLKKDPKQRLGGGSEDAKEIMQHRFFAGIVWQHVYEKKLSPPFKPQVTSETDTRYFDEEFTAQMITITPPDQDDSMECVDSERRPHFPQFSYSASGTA
UniProt P15056, whole entry: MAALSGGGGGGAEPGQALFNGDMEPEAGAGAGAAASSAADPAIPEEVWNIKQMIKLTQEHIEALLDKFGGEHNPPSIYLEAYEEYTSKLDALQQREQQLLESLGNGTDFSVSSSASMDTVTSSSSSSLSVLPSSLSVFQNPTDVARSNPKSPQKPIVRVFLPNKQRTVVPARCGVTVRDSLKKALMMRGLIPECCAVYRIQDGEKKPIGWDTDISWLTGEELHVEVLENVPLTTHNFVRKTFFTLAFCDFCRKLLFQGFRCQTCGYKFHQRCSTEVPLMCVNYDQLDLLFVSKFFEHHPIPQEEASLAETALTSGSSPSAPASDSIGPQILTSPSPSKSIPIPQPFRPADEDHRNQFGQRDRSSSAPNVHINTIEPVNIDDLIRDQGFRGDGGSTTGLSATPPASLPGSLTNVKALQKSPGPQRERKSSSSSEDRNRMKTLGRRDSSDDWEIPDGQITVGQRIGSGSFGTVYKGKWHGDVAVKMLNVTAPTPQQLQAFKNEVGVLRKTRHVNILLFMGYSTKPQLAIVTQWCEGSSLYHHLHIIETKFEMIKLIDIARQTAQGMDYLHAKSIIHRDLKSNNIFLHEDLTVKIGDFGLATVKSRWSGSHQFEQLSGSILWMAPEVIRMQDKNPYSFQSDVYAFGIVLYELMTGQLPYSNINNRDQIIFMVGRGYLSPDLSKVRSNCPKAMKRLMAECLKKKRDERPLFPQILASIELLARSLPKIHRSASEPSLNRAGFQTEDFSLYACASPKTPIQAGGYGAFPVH
UniProt P28482, whole entry: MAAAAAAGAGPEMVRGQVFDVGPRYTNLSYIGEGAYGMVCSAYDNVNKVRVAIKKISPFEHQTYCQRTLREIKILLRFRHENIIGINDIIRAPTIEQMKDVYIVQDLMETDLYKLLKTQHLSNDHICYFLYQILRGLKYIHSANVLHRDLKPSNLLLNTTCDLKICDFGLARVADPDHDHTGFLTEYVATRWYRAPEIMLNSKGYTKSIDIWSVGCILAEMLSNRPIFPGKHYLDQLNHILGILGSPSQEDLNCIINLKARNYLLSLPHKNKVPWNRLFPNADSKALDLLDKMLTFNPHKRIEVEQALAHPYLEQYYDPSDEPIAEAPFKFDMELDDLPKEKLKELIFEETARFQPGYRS
UniProt P08581: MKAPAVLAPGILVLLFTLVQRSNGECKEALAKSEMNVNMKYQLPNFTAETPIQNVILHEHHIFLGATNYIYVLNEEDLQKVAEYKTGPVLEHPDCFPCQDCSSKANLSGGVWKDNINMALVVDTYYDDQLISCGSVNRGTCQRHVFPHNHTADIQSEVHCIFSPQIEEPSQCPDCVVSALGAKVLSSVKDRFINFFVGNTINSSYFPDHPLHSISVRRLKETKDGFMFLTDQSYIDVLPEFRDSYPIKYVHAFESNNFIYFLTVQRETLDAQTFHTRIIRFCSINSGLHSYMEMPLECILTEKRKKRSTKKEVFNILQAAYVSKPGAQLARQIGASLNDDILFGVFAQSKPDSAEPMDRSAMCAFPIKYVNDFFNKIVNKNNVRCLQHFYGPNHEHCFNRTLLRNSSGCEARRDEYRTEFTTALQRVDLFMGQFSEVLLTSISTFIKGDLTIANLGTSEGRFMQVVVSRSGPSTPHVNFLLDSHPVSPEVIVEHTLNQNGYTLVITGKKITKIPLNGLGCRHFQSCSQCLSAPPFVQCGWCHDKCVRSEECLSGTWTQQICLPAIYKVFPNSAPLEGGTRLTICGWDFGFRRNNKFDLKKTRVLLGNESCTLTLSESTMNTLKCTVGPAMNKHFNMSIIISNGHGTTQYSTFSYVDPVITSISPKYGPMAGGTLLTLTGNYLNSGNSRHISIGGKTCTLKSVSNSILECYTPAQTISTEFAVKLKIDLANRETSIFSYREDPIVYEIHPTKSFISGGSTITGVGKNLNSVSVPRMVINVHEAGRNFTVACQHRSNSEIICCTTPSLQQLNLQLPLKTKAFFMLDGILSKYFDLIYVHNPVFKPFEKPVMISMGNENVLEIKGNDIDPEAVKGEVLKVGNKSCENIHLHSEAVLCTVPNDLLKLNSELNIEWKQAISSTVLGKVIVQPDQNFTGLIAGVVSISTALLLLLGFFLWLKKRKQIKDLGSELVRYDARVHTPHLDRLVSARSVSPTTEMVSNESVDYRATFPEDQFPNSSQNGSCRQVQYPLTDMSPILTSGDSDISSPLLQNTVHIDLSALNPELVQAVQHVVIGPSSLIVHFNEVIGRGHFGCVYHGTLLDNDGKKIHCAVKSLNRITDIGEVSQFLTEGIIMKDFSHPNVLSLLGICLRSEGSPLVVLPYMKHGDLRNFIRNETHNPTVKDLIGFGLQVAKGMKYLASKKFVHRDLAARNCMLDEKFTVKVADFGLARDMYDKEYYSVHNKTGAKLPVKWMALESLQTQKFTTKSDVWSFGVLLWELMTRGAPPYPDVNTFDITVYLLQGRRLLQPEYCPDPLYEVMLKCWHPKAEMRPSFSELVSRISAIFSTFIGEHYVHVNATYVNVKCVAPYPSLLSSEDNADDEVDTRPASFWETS
UniProt P10721, whole entry: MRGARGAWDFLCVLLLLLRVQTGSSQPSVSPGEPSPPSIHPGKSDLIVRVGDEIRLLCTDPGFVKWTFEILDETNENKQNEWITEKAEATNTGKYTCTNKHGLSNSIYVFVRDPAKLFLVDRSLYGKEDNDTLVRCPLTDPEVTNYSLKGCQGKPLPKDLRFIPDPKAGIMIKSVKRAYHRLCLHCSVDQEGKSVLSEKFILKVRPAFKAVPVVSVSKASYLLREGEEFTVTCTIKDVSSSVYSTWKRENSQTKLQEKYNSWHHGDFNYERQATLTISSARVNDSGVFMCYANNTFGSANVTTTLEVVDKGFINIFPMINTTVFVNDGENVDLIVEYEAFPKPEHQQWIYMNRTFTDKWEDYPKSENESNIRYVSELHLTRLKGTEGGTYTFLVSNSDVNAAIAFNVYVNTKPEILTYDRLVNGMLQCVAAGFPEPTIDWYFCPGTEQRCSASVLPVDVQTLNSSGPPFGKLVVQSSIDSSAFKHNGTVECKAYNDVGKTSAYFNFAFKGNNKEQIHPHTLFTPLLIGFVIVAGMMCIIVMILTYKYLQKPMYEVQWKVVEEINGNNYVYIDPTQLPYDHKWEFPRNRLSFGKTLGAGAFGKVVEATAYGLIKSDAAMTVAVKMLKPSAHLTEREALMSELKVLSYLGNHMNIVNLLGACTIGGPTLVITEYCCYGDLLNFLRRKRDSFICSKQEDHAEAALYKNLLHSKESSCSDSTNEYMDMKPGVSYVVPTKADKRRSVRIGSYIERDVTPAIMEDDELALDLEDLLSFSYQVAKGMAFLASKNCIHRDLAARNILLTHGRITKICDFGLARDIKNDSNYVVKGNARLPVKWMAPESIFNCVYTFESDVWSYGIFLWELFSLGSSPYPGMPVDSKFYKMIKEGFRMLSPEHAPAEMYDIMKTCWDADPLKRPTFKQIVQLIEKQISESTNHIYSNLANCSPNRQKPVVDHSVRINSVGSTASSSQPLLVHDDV
UniProt Q06187: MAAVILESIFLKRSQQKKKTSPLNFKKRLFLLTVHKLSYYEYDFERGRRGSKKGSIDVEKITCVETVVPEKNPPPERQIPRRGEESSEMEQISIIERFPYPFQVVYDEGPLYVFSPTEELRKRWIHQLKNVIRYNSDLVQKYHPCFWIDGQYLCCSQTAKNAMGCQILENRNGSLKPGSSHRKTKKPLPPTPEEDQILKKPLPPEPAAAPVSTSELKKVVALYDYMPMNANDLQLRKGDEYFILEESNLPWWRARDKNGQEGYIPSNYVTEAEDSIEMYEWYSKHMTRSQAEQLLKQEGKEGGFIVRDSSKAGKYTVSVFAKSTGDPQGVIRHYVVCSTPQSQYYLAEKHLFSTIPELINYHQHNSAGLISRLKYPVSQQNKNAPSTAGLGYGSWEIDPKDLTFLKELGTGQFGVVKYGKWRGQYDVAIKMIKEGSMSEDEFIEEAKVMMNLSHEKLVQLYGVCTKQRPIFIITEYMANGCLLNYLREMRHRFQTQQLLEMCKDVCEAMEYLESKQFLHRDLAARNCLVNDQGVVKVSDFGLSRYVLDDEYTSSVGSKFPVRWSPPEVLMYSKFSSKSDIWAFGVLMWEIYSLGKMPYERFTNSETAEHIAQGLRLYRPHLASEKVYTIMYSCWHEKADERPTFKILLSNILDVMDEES
UniProt Q9UM73: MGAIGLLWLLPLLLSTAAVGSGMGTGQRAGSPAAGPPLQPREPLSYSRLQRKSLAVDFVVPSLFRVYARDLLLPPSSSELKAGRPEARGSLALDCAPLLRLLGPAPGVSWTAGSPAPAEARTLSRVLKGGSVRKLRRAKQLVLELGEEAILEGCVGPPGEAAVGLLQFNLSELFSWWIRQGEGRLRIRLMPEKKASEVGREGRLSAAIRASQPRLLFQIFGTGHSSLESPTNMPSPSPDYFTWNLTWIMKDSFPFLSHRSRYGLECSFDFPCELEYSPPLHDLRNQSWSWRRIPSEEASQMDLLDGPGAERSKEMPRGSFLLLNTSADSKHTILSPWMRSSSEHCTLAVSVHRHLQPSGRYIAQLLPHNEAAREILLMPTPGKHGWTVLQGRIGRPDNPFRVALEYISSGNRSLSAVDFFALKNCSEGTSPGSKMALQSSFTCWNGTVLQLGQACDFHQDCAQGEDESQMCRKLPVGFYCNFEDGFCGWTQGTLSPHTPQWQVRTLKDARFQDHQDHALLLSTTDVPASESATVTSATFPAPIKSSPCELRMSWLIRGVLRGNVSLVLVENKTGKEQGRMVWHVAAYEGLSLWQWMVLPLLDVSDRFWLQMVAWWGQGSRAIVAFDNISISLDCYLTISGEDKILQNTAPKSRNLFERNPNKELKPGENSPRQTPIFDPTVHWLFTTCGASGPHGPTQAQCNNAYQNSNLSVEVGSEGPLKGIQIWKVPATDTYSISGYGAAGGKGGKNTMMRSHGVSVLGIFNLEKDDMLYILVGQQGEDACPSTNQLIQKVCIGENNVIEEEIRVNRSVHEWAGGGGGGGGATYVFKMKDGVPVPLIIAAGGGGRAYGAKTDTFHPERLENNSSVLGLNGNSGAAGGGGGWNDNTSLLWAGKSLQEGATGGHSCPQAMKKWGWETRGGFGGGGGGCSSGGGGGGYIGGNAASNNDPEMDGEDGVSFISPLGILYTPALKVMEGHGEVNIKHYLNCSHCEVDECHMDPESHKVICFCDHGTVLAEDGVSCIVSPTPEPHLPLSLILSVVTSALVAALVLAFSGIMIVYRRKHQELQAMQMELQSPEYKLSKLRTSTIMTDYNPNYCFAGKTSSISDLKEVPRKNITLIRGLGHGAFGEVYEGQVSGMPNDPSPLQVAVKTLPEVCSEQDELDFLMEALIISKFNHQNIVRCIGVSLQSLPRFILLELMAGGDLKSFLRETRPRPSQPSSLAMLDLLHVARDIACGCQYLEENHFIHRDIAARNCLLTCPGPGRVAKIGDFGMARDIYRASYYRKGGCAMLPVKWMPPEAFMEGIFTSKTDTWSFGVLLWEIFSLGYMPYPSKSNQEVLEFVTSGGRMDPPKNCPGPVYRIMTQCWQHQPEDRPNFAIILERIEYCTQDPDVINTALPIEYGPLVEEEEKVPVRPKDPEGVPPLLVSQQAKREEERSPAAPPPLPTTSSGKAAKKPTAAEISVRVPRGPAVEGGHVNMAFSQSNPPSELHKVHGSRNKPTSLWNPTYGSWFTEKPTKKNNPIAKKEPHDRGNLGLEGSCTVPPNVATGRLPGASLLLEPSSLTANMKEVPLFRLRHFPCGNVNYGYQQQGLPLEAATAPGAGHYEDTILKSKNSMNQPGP

In test [1] the target is RAC-alpha serine/threonine-protein kinase (Homo sapiens) (UniProt P31749). Briefly: Inhibition of AKT1 (unknown origin) at 1 uM relative to control.
Test [2] concerns the target Serine/threonine-protein kinase B-raf (Homo sapiens) (UniProt P15056). In words: Inhibition of BRAF (unknown origin) at 1 uM relative to control.
Test [3] has as its target Mitogen-activated protein kinase 1 (Homo sapiens) (UniProt P28482). Briefly: Inhibition of ERK2 (unknown origin) at 1 uM relative to control.
Test [4] addresses T1, Serine/threonine-protein kinase Chk1 (Homo sapiens) (UniProt O14757).
T1 sequence (whole entry): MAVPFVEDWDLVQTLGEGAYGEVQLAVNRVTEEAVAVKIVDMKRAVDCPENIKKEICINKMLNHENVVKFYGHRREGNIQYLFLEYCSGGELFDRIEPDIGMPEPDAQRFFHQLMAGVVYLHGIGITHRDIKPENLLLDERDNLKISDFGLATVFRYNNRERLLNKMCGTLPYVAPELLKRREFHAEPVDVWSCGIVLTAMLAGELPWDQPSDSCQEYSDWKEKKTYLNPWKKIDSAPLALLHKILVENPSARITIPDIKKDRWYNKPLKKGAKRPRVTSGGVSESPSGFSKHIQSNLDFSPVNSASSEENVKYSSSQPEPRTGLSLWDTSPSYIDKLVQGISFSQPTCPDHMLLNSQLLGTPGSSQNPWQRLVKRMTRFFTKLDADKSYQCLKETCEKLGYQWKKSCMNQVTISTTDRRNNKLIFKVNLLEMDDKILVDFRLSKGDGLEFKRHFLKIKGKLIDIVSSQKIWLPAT
Briefly: Inhibition of CHK1 (unknown origin) at 1 uM relative to control.

The target in test [5] is Hepatocyte growth factor receptor (Homo sapiens) (UniProt P08581). Briefly: Inhibition of cMet (unknown origin) at 1 uM relative to control.
Test [6] deals with Serine/threonine-protein kinase mTOR (Homo sapiens) (UniProt P42345). In words: Inhibition of mTOR (unknown origin) at 1 uM relative to control.
For test [7], the target named is Mast/stem cell growth factor receptor Kit (Homo sapiens) (UniProt P10721). In words: Inhibition of KIT (unknown origin) at 1 uM relative to control.
Test [8] deals with T2, Tyrosine-protein kinase ZAP-70 (Homo sapiens) (UniProt P43403).
T2 sequence (whole entry): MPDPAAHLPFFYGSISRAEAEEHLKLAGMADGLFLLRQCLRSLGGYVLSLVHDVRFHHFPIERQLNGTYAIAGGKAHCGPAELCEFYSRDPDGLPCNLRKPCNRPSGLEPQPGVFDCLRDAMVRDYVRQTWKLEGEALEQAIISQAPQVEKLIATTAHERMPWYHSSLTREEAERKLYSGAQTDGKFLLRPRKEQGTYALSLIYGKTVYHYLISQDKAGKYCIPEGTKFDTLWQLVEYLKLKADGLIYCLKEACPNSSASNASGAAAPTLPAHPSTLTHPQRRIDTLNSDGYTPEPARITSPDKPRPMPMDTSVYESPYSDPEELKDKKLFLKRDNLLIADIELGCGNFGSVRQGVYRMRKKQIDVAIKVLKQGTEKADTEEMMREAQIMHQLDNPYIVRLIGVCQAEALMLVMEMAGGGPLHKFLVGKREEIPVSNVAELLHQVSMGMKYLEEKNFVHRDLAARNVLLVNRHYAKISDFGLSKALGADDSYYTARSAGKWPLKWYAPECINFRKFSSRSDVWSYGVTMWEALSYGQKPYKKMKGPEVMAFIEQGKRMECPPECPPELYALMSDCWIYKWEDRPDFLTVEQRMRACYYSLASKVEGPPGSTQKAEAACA
Briefly: Inhibition of ZAP70 (unknown origin) at 1 uM relative to control.

In test [9] the target is Tyrosine-protein kinase BTK (Homo sapiens) (UniProt Q06187). In words: Inhibition of BTK (unknown origin) at 1 uM relative to control.
Test [10] deals with ALK tyrosine kinase receptor (Homo sapiens) (UniProt Q9UM73). Briefly: Inhibition of ALK (unknown origin) at 1 uM relative to control.
Test [11] has as its target T3, Serine/threonine-protein kinase PLK4 (Homo sapiens) (UniProt O00444).
T3 sequence (whole entry): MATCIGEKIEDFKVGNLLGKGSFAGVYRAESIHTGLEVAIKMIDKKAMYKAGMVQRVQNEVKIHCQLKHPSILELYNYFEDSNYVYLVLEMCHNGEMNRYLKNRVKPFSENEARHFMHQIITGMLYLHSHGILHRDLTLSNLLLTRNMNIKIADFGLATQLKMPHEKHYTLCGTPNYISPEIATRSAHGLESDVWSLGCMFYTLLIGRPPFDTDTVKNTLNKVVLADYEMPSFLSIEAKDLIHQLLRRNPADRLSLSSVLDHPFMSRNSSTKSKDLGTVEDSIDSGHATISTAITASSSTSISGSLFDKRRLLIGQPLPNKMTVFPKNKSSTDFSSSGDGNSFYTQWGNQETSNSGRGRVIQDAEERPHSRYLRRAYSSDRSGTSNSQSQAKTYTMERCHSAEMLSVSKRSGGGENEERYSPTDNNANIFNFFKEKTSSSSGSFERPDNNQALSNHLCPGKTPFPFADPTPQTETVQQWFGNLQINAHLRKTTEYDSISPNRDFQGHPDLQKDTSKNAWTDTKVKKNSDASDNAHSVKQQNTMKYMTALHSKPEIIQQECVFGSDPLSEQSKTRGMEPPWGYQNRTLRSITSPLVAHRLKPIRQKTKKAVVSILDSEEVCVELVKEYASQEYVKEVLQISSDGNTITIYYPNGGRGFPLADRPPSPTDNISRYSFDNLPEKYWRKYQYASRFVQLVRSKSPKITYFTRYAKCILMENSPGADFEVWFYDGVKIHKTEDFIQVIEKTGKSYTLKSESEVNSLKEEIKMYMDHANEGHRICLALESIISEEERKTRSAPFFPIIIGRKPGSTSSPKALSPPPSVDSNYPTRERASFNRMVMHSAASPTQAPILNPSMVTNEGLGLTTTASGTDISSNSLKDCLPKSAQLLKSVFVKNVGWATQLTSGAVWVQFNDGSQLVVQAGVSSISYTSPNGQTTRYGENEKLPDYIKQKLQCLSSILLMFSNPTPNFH
Briefly: Inhibition of PLK4 (unknown origin) at 1 uM relative to control.

The inhibition is how much of the control response was suppressed. For `CP(C)(=O)c1ccccc1Nc1nc(Nc2ccc(C(=O)NC3CCOCC3)cc2)ncc1Cl`, the inhibition in test [1] stood at 10%; in [2] it was 43%; in test [3], 5%; in test [4] it was 33%; in test [5] it was 85%; in test [6], 2%. The inhibition in test [7] is 27%; in [8], 4%; in [9], 8%; in test [10], 97%; in test [11] it was 98%.

For the origin of these results see ChEMBL document CHEMBL5329207, “Design, synthesis, and biological evaluation of diaminopyrimidine derivatives as novel focal adhesion kinase inhibitors” (RSC Med Chem, 2023).
